Results taken from patent US8952042B2, “FXR (NR1H4) binding and activity modulating compounds” (Phenex Pharmaceuticals AG, priority 2009, dated 2015).

The chains behind the UniProt entries cited, without tags or fusion partners. Residues count along the entry.
UniProt Q96RI1, 187-472 isoform 2 limits assumed: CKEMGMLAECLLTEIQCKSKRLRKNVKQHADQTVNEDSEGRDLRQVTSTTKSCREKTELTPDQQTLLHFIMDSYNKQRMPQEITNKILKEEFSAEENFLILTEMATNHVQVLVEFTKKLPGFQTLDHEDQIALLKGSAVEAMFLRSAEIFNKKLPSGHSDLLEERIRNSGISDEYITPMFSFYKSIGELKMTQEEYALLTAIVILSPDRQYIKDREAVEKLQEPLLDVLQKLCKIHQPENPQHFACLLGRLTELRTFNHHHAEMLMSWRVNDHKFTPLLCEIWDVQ

Key:
[1] = target: human FXR alpha ligand binding domain (Homo sapiens, UniProt Q96RI1); experiment: FRET activity assay (ligand mediated cofactor peptide interaction, LANCE); assay type: biochemical; conditions: read-out: FRET EC50; potency range
[2] = target: FXR ligand binding domain (Homo sapiens, UniProt Q96RI1); experiment: Mammalian One Hybrid (M1H) Gal4 reporter assay in HEK293 cells; assay type: cell-based; conditions: read-out: Gal4 (M1H) EC50, potency range
[3] = UV photostability, irradiation at 254 nm, 1H NMR; conditions: 70 h UV irradiation at 254 nm

- EC50 [1]: 0.01 to 0.1 µM
- EC50 [2]: 0.01 to 0.1 µM
- behaviour in 1H NMR spectrum after prolonged UV irradiation [3]: major changes
- compound still present in the mixture (1H NMR integration) ([3]; deuterated ethanol): 45%
Compound: O=C(O)c1cccc(/C=C/c2ccc(OCc3c(-c4c(Cl)cccc4Cl)noc3C3CC3)cc2Cl)c1
